AlphaSeq binding of Ab-14 heavy chain variants to a spike HR2 peptide

The target is the same throughout: PDVDLGDISGINAS, from the HR2 region of SARS-CoV-2 spike.

Parent scFv Ab-14: VH joined to VL by a (GGGGS)3 linker. Changes lie in the heavy chain CDRs alone.
VH: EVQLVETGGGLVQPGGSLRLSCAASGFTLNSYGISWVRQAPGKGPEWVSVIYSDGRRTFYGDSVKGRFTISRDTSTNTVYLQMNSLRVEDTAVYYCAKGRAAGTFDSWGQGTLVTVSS
VL: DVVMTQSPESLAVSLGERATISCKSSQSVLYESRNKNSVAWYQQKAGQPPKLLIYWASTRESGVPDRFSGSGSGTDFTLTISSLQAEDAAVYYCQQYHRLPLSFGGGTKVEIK

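Phage display of a naive human antibody library on the peptide gave the parent. The variants were designed computationally from a first round of random CDR variants and then made and measured. Group labels follow the data file (Ctrl: baseline library sampled from a position-specific scoring matrix, with some repeated check sequences; Rand: our label for a block that the file lists under HC and that is probably the random mutants of the ten best first-round binders; En: ensemble of fine-tuned language models; GP: Gaussian process model; GPLM: also part of the Gaussian process libraries; HC: hill climbing; Gen: genetic algorithm; Gibbs: Gibbs sampling; a sequence that several methods proposed may carry one label only). The assay is AlphaSeq: two haploid yeast populations carry antibody and antigen on their surface. After mating in shaken culture at 30 °C for 16 h, diploids were selected and their barcode pairs sequenced. Each replicate has its own calibration line, from reference interactions of the BCL2 family. There are six technical replicates.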

Variants are written as CDR1, CDR2 and CDR3 of the heavy chain (limits as in the source). Parent: GFTLNSYGIS, VIYSDGRRTFYGDSVK, GRAAGTFDS. The read-out is the apparent dissociation constant on a log10 scale (nM): the lower, the stronger. The mean shown is taken over the replicates in which the pair was detected. A pair that was not seen in any replicate is written "no signal"; this usually means weak binding, but a binder can also be missed.

CDR-H1	CDR-H2	CDR-H3	group	mean, log10 nM	seen in
GNDLEEYGIS	VIYADGIRTNYHQNVK	GTLGDTFTQ	En_Gibbs	no signal	0/6
GFTLNSYGIS	VIYSDGQRTFYGDSVK	GRVAGTFDM	GP_Gibbs	1.88	2/6
KFSLNSYGIS	VIYSDGKRTFYSDSVK	GRQAGTFDS	GP_Gibbs	no signal	0/6
GFQLNSYGIS	VIYSDGRRTFYIDSVK	GEAAGTFDS	GP_Gen	1.52	5/6
GFDLNEYGIS	VIYADGVRTAYSDSVK	GNQAGTFDI	En_Gen	-0.19	6/6
WFTLESYGIS	VIYADGRRTFYGDSVK	GRAAGTFDS	GP_HC	no signal	0/6
GFELNAYGIS	VIYSDGRRTAYGDSVK	GRTAGTFDS	GP_Gibbs	-0.93	4/6
GFELNSYGIS	VIYSDGRRTFYQDSVK	GRMAGTFDS	GP_Gen	1.22	6/6
GFNLDEYGIS	VIYADGMRTFYTDSVK	GETAGTFDV	En_HC	-0.38	6/6
GFTLNSYGIS	VIYSDGRRTFYKDSVK	GRAAGTFDW	Ctrl	1.26	4/6
GFELNSYGIS	VIYSDGRRTFYVDSVK	GKVAGTFDT	GP_Gibbs	1.95	5/6
GFELNSYGIS	VIYADGRRTFYGDSVK	GKAAGTFDQ	GP_Gen	0.25	6/6
GFDVDEYGIS	VIYADGKRSMYANSVK	GTIGGMFFQ	En_Gibbs	0.60	5/6
GFDLDEYGIS	VIYADGMRTAYADKVK	GEVAGTFDL	En_Gen	2.72	1/6
GFDLNEYGIS	VIYADGRRTFYKDSVK	GEAAGTFDE	En_HC	-0.26	6/6
GFDLNEYGIS	VIYADGKRTAYSDSVK	GGNAGTFDV	En_Gen	-1.33	6/6
GFDLNEYGIS	VIYADGQRKAYADSVK	GTNAGTFDV	En_Gen	-0.37	6/6
GFDLNEYGIS	VIYADGVRKAYADDVK	GENAGTFDI	En_Gen	0.74	6/6
GFDLNEYGIS	VIYADGKRTFYADSVK	GQVAGTFDT	En_HC	-0.53	6/6
GFTLNDYGIS	VIYSDGRRTFYHDSVK	GRAAGTFMS	GP_HC	no signal	0/6
GFTLNEYGIS	VIYSDGRRTFYGDSVK	GRMAGTFIS	GPLM_HC	no signal	0/6
GFELNSYGIS	VIYADGRRTQYGDSVK	GRHPGTFDS	Ctrl	0.66	5/6
GQDLDEYGVS	VIYADGIRTQYTNDVK	GLYSGAFII	En_Gibbs	2.95	1/6
GFDLNEYGIS	VIYADGMRTAYSDSVK	GNEAGTFDT	En_Gen	-0.14	6/6
GFDLNEYGIS	VIYADGRRTYYADSVK	GNQAGTFDQ	En_HC	-0.58	6/6
GFDLNEYGIS	VIYSDGRRTFYGDSVK	GRAANTFDQ	Rand	no signal	0/6
GFGLGEYGIS	VIYADGRRTFYKDDVK	GHFIVAGVD	En_Gibbs	no signal	0/6
GMNLGEYGIS	VIYADGVRQAYVDKVK	GFNGVDGIV	En_Gibbs	no signal	0/6
GFDLNEYGIS	VIYADGRRTAYIDSVK	GEVAGTFDL	En_HC	-1.02	6/6
GFDLNEYGIS	VIYADGRRTFYSDSVK	GEVAGTFDS	En_HC	-0.61	6/6
GFDLEEYGIS	VIYADGLRSYYDDNFK	GWNSGTIFV	En_Gibbs	no signal	0/6
GFTLNEYGIS	VIYSDGRRTFYMDSVK	GRLAGTFDS	GPLM_HC	1.06	6/6
GFTLNEYGIS	VRYSDGRRTFYGDSVK	GFASVTFDQ	Rand	no signal	0/6
GFDLNEYGIS	VIYADGVRTFYVDSVK	GETAGTFDS	En_HC	-0.31	6/6
GFQLNSYGIS	VIYSDGRRTLYGDSVK	GRAAGTFPS	Ctrl	no signal	0/6
GFTLNNYGIS	VIYSDGRRTFYGDSVV	QWAAGTFDK	Ctrl	no signal	0/6
GFALNEYGIS	VIYSDGRRTFYGDSVK	GQTAGTFDL	GP_Gibbs	0.59	6/6
GFNLNEYGIS	VIYADGKRTFYADSVK	GEIAGTFDV	En_HC	-0.57	6/6
GFDLNEYGIS	VIYADGRRTFYADSVK	GQQAGTFDM	En_HC	-0.62	6/6
GFALDEYGIS	VIYADGMRTFYSNTVK	GEDGVFYDQ	En_Gibbs	3.18	1/6
GFDLNEYGIS	VIYADGRRTQYIDSVK	GNQAGTFDF	En_HC	0.09	6/6
GFDLNSYGIS	VIYSDGRRTFYVDSVK	GRTAGTFDF	GP_Gen	0.72	6/6
GFDLNDYGIS	VIYADGMRTSYIDSVK	GEQAGTFDL	En_HC	-0.34	6/6
GFDINEYGIS	VIYADGQRVAYTNSFK	GTQAGNNIN	En_Gibbs	no signal	0/6
GFQLNDYGIS	VIYSDGRRTFYGDQVK	GKTAGTFDS	GP_Gibbs	0.54	6/6
GFDLNEYGIS	VIYADGMRTFYADDVK	GNVAGTFDQ	En_Gen	0.52	6/6
GFTLNSYGIS	VIYSDGRRTFYGDSVK	GRTAGSFTV	GP_HC	no signal	0/6
GFQLDEYGIS	VIYADGERTMYSNRVK	GTEGGTFDM	En_Gibbs	0.42	6/6
GFDLEEYGIS	VIYADGKRTAYSDSVK	GENAGTFDV	En_Gen	-0.29	6/6
GETLNEYGIS	VIYSDGRRTFYGDSVK	GTAAGTFDS	Ctrl	1.88	4/6
GFDLDEYGIS	VIYADGSRTAYADSVK	GEVAGTFDT	En_Gen	-0.26	6/6
GFDIEEYGIS	VIYADGRRKAYADSVK	GIDVYGKVV	En_Gibbs	no signal	0/6
GFDLNMYGIS	VIYSDGRRTFYGDSVK	GKAAGTFDS	GPLM_Gen	0.43	6/6
GFDLDEYGIS	VIYADGMRKAYADSVK	GENAGTFDI	En_Gen	0.08	6/6
GFDLDEYGIS	VIYADGKRTAYVDSVK	GQNAGTFDV	En_Gen	no signal	0/6
GFDLNEYGIS	VIYADGRRTAYIDSVK	GQVAGTFDS	En_HC	-0.50	6/6

The last 3 entries again:

CDR-H1	CDR-H2	CDR-H3	group	mean, log10 nM	seen in
GFDLDEYGIS	VIYADGMRKAYADSVK	GENAGTFDI	En_Gen	0.08	6/6
GFDLDEYGIS	VIYADGKRTAYVDSVK	GQNAGTFDV	En_Gen	no signal	0/6
GFDLNEYGIS	VIYADGRRTAYIDSVK	GQVAGTFDS	En_HC	-0.50	6/6

A sequence measured in both rounds can read differently, since the two assays cover different ranges. Background: pairings of all heavy chain designs with three empty control strains gave a value in 1% of cases (median 2.08, 5th percentile 0.84). Values in that range, when seen in few replicates, are hard to tell from nonspecific mating. Of ten entries with the parent sequence, four were seen in most replicates (averages 0.34 to 2.37), three in one and three in none, so single entries are noisy. In the paper, a design with two or fewer of six values counts as a poor binder.

From the AlphaSeq antibody data of Li et al. 2023 (doi:10.1038/s41467-023-39022-2), copy in the FLAb collection.